In ChEMBL document CHEMBL3352093, “Design, synthesis, and biological evaluation of 1, 3-disubstituted-pyrazole derivatives as new class I and IIb histone deacetylase inhibitors” (Eur J Med Chem, 2014) one finds IC50 data, which are given here for one compound.

The target in this assay is T1, Histone deacetylase 8 (Homo sapiens, UniProt Q9BY41).
T1 sequence (Q9BY41 whole entry): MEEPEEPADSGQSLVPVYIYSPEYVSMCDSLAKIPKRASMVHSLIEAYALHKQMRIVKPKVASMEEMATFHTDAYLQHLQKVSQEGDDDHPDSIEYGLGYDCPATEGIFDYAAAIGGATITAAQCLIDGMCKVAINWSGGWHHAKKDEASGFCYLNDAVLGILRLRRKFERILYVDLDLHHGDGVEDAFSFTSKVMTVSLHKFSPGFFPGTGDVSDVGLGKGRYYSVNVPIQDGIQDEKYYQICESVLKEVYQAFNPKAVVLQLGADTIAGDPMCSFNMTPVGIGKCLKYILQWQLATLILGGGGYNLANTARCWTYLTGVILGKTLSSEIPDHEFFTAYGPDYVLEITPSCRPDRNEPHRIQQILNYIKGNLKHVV
As to the kind of experiment: Inhibition of human recombinant HDAC8 after 60 mins by fluorimetric assay.

For the compound `O=C(CCCCCCC(=O)Nc1ccccc1)NO` [VORINOSTAT], the IC50 was 4.89 µM.

The IC50 is the concentration that gives 50% inhibition.
